Test results taken from US12152019B2, “Arylalkyl pyrazole compounds as indoleamine 2,3-dioxygenase inhibitors” (Merck Sharp & Dohme LLC, priority 2018, dated 2024).

The chains behind the UniProt entries cited, without tags or fusion partners.
UniProt P14902, whole entry: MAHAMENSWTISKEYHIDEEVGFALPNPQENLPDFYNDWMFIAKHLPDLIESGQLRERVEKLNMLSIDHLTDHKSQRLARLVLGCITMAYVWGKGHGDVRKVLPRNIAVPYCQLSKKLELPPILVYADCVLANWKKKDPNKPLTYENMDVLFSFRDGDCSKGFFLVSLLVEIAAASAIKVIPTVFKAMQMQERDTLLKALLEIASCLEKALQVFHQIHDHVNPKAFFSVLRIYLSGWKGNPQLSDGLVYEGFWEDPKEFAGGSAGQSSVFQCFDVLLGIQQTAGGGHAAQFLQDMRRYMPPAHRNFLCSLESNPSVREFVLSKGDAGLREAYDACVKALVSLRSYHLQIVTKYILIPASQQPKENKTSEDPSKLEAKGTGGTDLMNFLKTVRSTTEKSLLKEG

Molecular target: IDO1 (Homo sapiens, UniProt P14902)
Assay: IDO1 Cellular Assay in HeLa Cells Stimulated with IFNγ
Format: cell-based
Settings: HeLa cells stimulated with IFNγ 100 ng/mL, 300 uM L-tryptophan, about 48 hours, fluorescence readout; read-out: HeLa Cell Potency, IC50

| IC50 | SMILES |
| --- | --- |
| 1.73 nM | CC(=O)NC1CCN(C(=O)c2nn(CCC3CCN(c4cccc(Cl)c4Cl)CC3)c3c2CCCC3)CC1 [Example 19, N-[1-[1-[2-[1-(2,3-dichlorophenyl)-4-piperidyl]ethyl]-4,5,6,7-tetrahydroindazole-3-carbonyl]-4-piperidyl]acetamide] |
| 1.31 nM | CC(=O)NC1CCN(C(=O)c2nn(CCC3CCN(c4cccc(Cl)c4C)CC3)c3c2CCCC3)CC1 [Example 20, N-[1-[1-[2-[1-(3-chloro-2-methyl-phenyl)-4-piperidyl]ethyl]-4,5,6,7-tetrahydroindazole-3-carbonyl]-4-piperidyl]acetamide] |
| 1.81 nM | CC(=O)NC1CCN(C(=O)c2nn(CCC3CCN(c4cccc(C(F)(F)F)c4C)CC3)c3c2CCCC3)CC1 [Example 22, N-[1-[1-[2-[1-[2-methyl-3-(trifluoromethyl)phenyl]-4-piperidyl]ethyl]-4,5,6,7-tetrahydroindazole-3-carbonyl]-4-piperidyl]acetamide] |
| 1.79 nM | CC(=O)NC1CCN(C(=O)c2nn(CCC3CCN(c4ccc(F)cc4C)CC3)c3c2CCCC3)CC1 [Example 23, N-[1-[1-[2-[1-(4-fluoro-2-methyl-phenyl)-4-piperidyl]ethyl]-4,5,6,7-tetrahydroindazole-3-carbonyl]-4-piperidyl]acetamide] |
| 2.56 nM | CC(=O)NC1CCN(C(=O)c2nn(CCC3CCN(c4ncc(F)cc4F)CC3)c3c2CCCC3)CC1 [Example 24, N-[1-[1-[2-[1-(3,5-difluoro-2-pyridyl)-4-piperidyl]ethyl]-4,5,6,7-tetrahydroindazole-3-carbonyl]-4-piperidyl]acetamide] |
| 3.66 nM | CC(=O)NC1CCN(C(=O)c2nn(CCC3CCN(c4nccnc4C)CC3)c3c2CCCC3)CC1 [Example 25, N-[1-[1-[2-[1-(3-methylpyrazin-2-yl)-4-piperidyl]ethyl]-4,5,6,7-tetrahydroindazole-3-carbonyl]-4-piperidyl]acetamide] |
| 6.23 nM | CC(=O)NC1CCN(C(=O)c2nn(CCC3CCN(c4ncc(C)cc4C)CC3)c3c2CCCC3)CC1 [Example 26, N-[1-[1-[2-[1-(3,5-dimethyl-2-pyridyl)-4-piperidyl]ethyl]-4,5,6,7-tetrahydroindazole-3-carbonyl]-4-piperidyl]acetamide] |
| 7.74 nM | CC(=O)NC1CCN(C(=O)c2nn(CCC3CCN(c4cnc(C)cn4)CC3)c3c2CCCC3)CC1 [Example 27, N-[1-[1-[2-[1-(5-methylpyrazin-2-yl)-4-piperidyl]ethyl]-4,5,6,7-tetrahydroindazole-3-carbonyl]-4-piperidyl]acetamide] |
| 9.47 nM | CC(=O)NC1CCN(C(=O)c2nn(CCC3CCN(c4cccnc4C)CC3)c3c2CCCC3)CC1 [Example 28, N-[1-[1-[2-[1-(2-methyl-3-pyridyl)-4-piperidyl]ethyl]-4,5,6,7-tetrahydroindazole-3-carbonyl]-4-piperidyl]acetamide] |
| 22.7 nM | CC(=O)NC1CCN(C(=O)c2nn(CCC3CCN(c4ccc(C)nc4)CC3)c3c2CCCC3)CC1 [Example 29, N-[1-[1-[2-[1-(6-methyl-3-pyridyl)-4-piperidyl]ethyl]-4,5,6,7-tetrahydroindazole-3-carbonyl]-4-piperidyl]acetamide] |
| 39.8 nM | CC(=O)NC1CCN(C(=O)c2nn(CCC3CCN(c4cnc(C)c(C)c4)CC3)c3c2CCCC3)CC1 [Example 30, N-[1-[1-[2-[1-(5,6-dimethyl-3-pyridyl)-4-piperidyl]ethyl]-4,5,6,7-tetrahydroindazole-3-carbonyl]-4-piperidyl]acetamide] |
| 41.5 nM | CC(=O)NC1CCN(C(=O)c2nn(CCC3CCN(c4cncc(C)n4)CC3)c3c2CCCC3)CC1 [Example 31, N-[1-[1-[2-[1-(6-methylpyrazin-2-yl)-4-piperidyl]ethyl]-4,5,6,7-tetrahydroindazole-3-carbonyl]-4-piperidyl]acetamide] |
| 42.4 nM | CC(=O)NC1CCN(C(=O)c2nn(CCC3CCN(c4ccncc4C)CC3)c3c2CCCC3)CC1 [Example 32, N-[1-[1-[2-[1-(3-methyl-4-pyridyl)-4-piperidyl]ethyl]-4,5,6,7-tetrahydroindazole-3-carbonyl]-4-piperidyl]acetamide] |
| 68.5 nM | CC(=O)NC1CCN(C(=O)c2nn(CCC3CCN(c4ccc(Cl)nn4)CC3)c3c2CCCC3)CC1 [Example 33, N-[1-[1-[2-[1-(6-chloropyridazin-3-yl)-4-piperidyl]ethyl]-4,5,6,7-tetrahydroindazole-3-carbonyl]-4-piperidyl]acetamide] |
| 1.66 nM | CC(=O)NC1CCN(C(=O)c2nn(CCC3CCN(c4nccc(C(F)(F)F)c4F)CC3)c3c2CCCC3)CC1 [Example 35, N-[1-[1-[2-[1-[3-fluoro-4-(trifluoromethyl)-2-pyridyl]-4-piperidyl]ethyl]-4,5,6,7-tetrahydroindazole-3-carbonyl]-4-piperidyl]acetamide] |
| 4.14 nM | CC(=O)NC1CCN(C(=O)c2nn(CCC3CCN(c4ncc(C(F)(F)F)cc4Cl)CC3)c3c2CCCC3)CC1 [Example 36, N-[1-[1-[2-[1-[3-chloro-5-(trifluoromethyl)-2-pyridyl]-4-piperidyl]ethyl]-4,5,6,7-tetrahydroindazole-3-carbonyl]-4-piperidyl]acetamide] |
| 5.02 nM | CC(=O)NC1CCN(C(=O)c2nn(CCC3CCN(c4cc(C(F)(F)F)ccn4)CC3)c3c2CCCC3)CC1 [Example 37, N-[1-[1-[2-[1-[4-(trifluoromethyl)-2-pyridyl]-4-piperidyl]ethyl]-4,5,6,7-tetrahydroindazole-3-carbonyl]-4-piperidyl]acetamide] |
| 20.9 nM | CC(=O)NC1CCN(C(=O)c2nn(CCC3CCN(c4cccc(Cl)n4)CC3)c3c2CCCC3)CC1 [Example 38, N-[1-[1-[2-[1-(6-chloro-2-pyridyl)-4-piperidyl]ethyl]-4,5,6,7-tetrahydroindazole-3-carbonyl]-4-piperidyl]acetamide] |
| 21.9 nM | CC(=O)NC1CCN(C(=O)c2nn(CCC3CCN(c4ncccc4C#N)CC3)c3c2CCCC3)CC1 [Example 39, N-[1-[1-[2-[1-(3-cyano-2-pyridyl)-4-piperidyl]ethyl]-4,5,6,7-tetrahydroindazole-3-carbonyl]-4-piperidyl]acetamide] |
| 22.9 nM | CC(=O)NC1CCN(C(=O)c2nn(CCC3CCN(c4cc(C#N)ccn4)CC3)c3c2CCCC3)CC1 [Example 40, N-[1-[1-[2-[1-(4-cyano-2-pyridyl)-4-piperidyl]ethyl]-4,5,6,7-tetrahydroindazole-3-carbonyl]-4-pipridyl]acetamide] |
| 233 nM | O=C(c1cccc(Cl)c1)N1CCC(CCn2nc(C(=O)N3CCC(O)CC3)c3c2CCC3)CC1 [Example 41, (1-(2-(1-(3-chlorobenzoyl)piperidin-4-yl)ethyl)-1,4,5,6-tetrahydrocyclopenta[c]pyrazol-3-yl)(4-hydroxypiperidin-1-yl)methanone] |
| 444 nM | O=C(c1ccccc1)N1CCC(CCn2nc(C(=O)N3CCC(O)CC3)c3c2CCC3)CC1 [Example 42, [4-[2-[3-(4-hydroxypiperidine-1-carbonyl)-5,6-dihydro-4H-cyclopenta[c]pyrazol-1-yl]ethyl]-1-piperidyl]-phenyl-methanone] |
| 3.27 nM | Cc1c(Cl)cccc1O[C@H]1CC[C@@H](CCn2nc(C(=O)N3C[C@@H](C)O[C@@H](C)C3)c3c2CCC3)CC1 [Example 53, (1-(2-((1s,4S)-4-(3-chloro-2-methylphenoxy)cyclohexyl)ethyl)-1,4,5,6-tetrahydrocyclopenta[c]pyrazol-3-yl)((2R,6S)-2,6-dimethylmorpholino)methanone] |
| 47.7 nM | Cc1c(Cl)cccc1O[C@H]1CC[C@H](CCn2nc(C(=O)N3C[C@@H](C)O[C@@H](C)C3)c3c2CCC3)CC1 [Example 54, (1-(2-((1r,4R)-4-(3-chloro-2-methylphenoxy)cyclohexyl)ethyl)-1,4,5,6-tetrahydrocyclopenta[c]pyrazol-3-yl)((2R,6S)-2,6-dimethylmorpholino)methanone] |
| 2.61 nM | Cc1ccc(Cl)c(O[C@H]2CC[C@@H](CCn3nc(C(=O)N4CCN(C(=O)CO)CC4)c4c3CCC4)CC2)c1 [Example 57, 1-(4-(1-(2-((1s,4s)-4-(2-chloro-5-methylphenoxy)cyclohexyl)ethyl)-1,4,5,6-tetrahydrocyclopenta[c]pyrazole-3-carbonyl)piperazin-1-yl)-2-hydroxyethan-1-one] |
| 1.6 nM | Cc1ccc(Cl)c(O[C@H]2CC[C@@H](CCn3nc(C(=O)N4CCC(F)(CO)CC4)c4c3CCC4)CC2)c1 [Example 58, (1-(2-((1s,4s)-4-(2-chloro-5-methylphenoxy)cyclohexyl)ethyl)-1,4,5,6-tetrahydrocyclopenta[c]pyrazol-3-yl)(4-fluoro-4-(hydroxymethyl)piperidin-1-yl)methanone] |
| 45.1 nM | Cc1ccc(Cl)c(O[C@H]2CC[C@H](CCn3nc(C(=O)N4CCN(C(=O)CO)CC4)c4c3CCC4)CC2)c1 [Example 59, 1-(4-(1-(2-((1r,4r)-4-(2-chloro-5-methylphenoxy)cyclohexyl)ethyl)-1,4,5,6-tetrahydrocyclopenta[c]pyrazole-3-carbonyl)piperazin-1-yl)-2-hydroxyethan-1-one] |
| 47.3 nM | Cc1ccc(Cl)c(O[C@H]2CC[C@H](CCn3nc(C(=O)N4CCC(F)(CO)CC4)c4c3CCC4)CC2)c1 [Example 60, (1-(2-((1r,4r)-4-(2-chloro-5-methylphenoxy)cyclohexyl)ethyl)-1,4,5,6-tetrahydrocyclopenta[c]pyrazol-3-yl)(4-fluoro-4-(hydroxymethyl)piperidin-1-yl)methanone] |
| 0.577 nM | CC(=O)NC1CCN(C(=O)c2nn(CC[C@H]3CC[C@@H](Oc4ccccc4C)CC3)c3c2CCC3)CC1 [Example 61, N-(1-(1-(2-((1s,4s)-4-(2-methylphenoxy)cyclohexyl)ethyl)-1,4,5,6-tetrahydrocyclopenta[c]pyrazole-3-carbonyl)piperidin-4-yl)acetamide] |
| 0.688 nM | CC(=O)NC1CCN(C(=O)c2nn(CC[C@H]3CC[C@@H](Oc4ncccc4C)CC3)c3c2CCC3)CC1 [Example 62, N-(1-(1-(2-((1s,4s)-4-((3-methylpyridin-2-yl)oxy)cyclohexyl)ethyl)-1,4,5,6-tetrahydrocyclopenta[c]pyrazole-3-carbonyl)piperidin-4-yl)acetamide] |
